The target of test [1] is Prostaglandin G/H synthase 1 (Homo sapiens, UniProt P23219). The test is described as follows: Inhibition of human COX-1.
For test [2], the species on record is Homo sapiens. Kind of test: Selectivity ratio of IC50 for human COX1 to IC50 for human COX2.

Protein sequences, listed by entry. Tags and fused reporters are not part of them.
UniProt P23219, whole entry: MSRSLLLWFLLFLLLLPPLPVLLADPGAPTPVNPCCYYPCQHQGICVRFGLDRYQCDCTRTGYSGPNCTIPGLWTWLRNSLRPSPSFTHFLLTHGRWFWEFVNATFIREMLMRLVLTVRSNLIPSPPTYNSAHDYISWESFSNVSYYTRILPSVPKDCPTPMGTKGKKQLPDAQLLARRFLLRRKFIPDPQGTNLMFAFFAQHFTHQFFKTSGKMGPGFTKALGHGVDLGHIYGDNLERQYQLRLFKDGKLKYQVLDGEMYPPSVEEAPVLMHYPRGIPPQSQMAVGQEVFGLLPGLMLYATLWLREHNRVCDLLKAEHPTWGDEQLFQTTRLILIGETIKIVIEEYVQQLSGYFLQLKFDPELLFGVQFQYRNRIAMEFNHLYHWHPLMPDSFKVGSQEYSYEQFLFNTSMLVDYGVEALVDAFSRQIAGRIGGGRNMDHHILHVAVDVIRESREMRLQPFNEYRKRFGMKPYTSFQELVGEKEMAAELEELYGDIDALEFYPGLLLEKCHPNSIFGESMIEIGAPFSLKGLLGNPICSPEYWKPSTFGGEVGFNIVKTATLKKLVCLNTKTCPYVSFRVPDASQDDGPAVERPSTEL

As to `Cc1cc(OC(F)(F)F)cc2c1O[C@H](C(F)(F)F)C(C(=O)O)=C2`, in test [1], inhibition was half-maximal at 2690 nM (IC50).
For `Cc1cc(OC(F)(F)F)cc2c1OC(C(F)(F)F)C(C(=O)O)=C2` (centres undefined), in test [2], the Ratio IC50 was determined as 9. This compound also had an IC50 in test [1] of 140 nM.
Compound `Cc1cc(OC(F)(F)F)cc2c1O[C@@H](C(F)(F)F)C(C(=O)O)=C2` registered an IC50 in test [1] of 62700 nM.

The values are drawn from ChEMBL document CHEMBL1287644, “The novel benzopyran class of selective cyclooxygenase-2 inhibitors. Part III: the three microdose candidates” (Bioorg Med Chem Lett, 2010).
